# In PubChem BioAssay AID1466 (National Center for Advancing Translational Sciences (NCATS), 2008):
# This is one part of the list. Results filed as inconclusive are left out. Calls of active or inactive are those of the source. Calls follow the shape of the dose curve; as a rule, active = well fitted inhibition curve with a large enough effect; inconclusive = small, poorly fitted or top-dose-only effect, or effect the other way, or another doubt; inactive = no such curve, though single readings can be large or run the other way.
# Target: Lysosomal alpha-glucosidase (Homo sapiens) (UniProt P10253)
# Assay: qHTS Assay for Inhibitors of Human alpha-Glucosidase as a Potential Chaperone Treatment of Pompe Disease;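 also: plate controls were uninhibited enzyme wells for no effect and no-enzyme background for full effect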
# Settings: purified human GAA, 4-MU-alpha-glucoside fluorescence; at 76.9 µM (top of the series) unless noted
row,Structure (SMILES),"activity change, negative = inhibition"
1,Nc1cccc2ccc([As](=O)(O)O)cc12,inactive: -7.92%
2,CCN(N=Nc1nonc1N)c1nonc1N,inactive: -2.78%
3,O=C(O)c1ccccc1[As](=O)(O)O,inactive: -1.45%
4,CC(=O)Nc1ccc([As](=O)(O)O)cc1,inactive: 4%
5,CCOP(=O)(Nc1ccccc1)OCC,inactive: -1.63%
6,Cc1cc(SC(NC(=O)c2ccc(F)cc2)C(Cl)(Cl)Cl)ncn1 (stereo not given),inactive: 2.52%
7,Oc1ccccc1CNc1ccccn1,inactive: -4.93%
8,Cc1c2non([O-])c-2c(C)[n+](=O)[n+]1[O-],inactive: -2.49%
9,O=C(NC(Sc1ccncn1)C(Cl)(Cl)Cl)c1ccccc1 (stereo not given),inactive: -7.78%
10,CC(C)CC(=O)NC(Sc1ccc(Cl)cc1)C(Cl)(Cl)Cl (stereo not given),inactive: -1.12%
11,Cc1ccc(N/C(=N/P(=O)(N2CCOCC2)N2CCOCC2)N2CCOCC2)cc1,inactive: 6.11%
12,NC(=O)c1cc([N+](=O)[O-])cc([N+](=O)[O-])c1N,inactive: -12.4%
13,Clc1ccc(Cl)c(NC2=NCC(CBr)S2)c1 (stereo not given),inactive: 3.64%
14,CN1CCCC(OC(=O)C(c2ccccc2)c2ccccc2)C1 (stereo not given),inactive: -9.81%
15,COc1ccccc1OP(=O)(Nc1ccc(C)cn1)Oc1ccccc1OC,inactive: 0.0874%
16,CCN(/C(=N/P(=O)(N1CCOCC1)N1CCOCC1)N1CCOCC1)c1ccc(OC)cc1,inactive: 0.374%
17,Nc1ccc([As](=O)(O)c2ccc(N)cc2)cc1,inactive: -4.18%
18,CC1CCN(C(=O)Oc2c(Cl)cc(Cl)c3cccnc23)CC1,inactive: -5.55%
19,CC(C)=N/N=C(\N)N[N+](=O)[O-],inactive: 10.2%
20,CN(C)C(=O)OCCc1n(C)cc[n+]1C,inactive: -1.4%
21,Cc1ccc(NP(=O)(Oc2ccccc2)Oc2ccccc2)nc1,inactive: -6.29%
22,O=[N+]([O-])c1cc([N+](=O)[O-])c(CCNc2ccccc2)c([N+](=O)[O-])c1,inactive: 1.74%
23,CCc1nc2c(n1)c1c(non1O)c1c2no[n+]1[O-],inactive: 1.01%

row,Structure (SMILES),"activity change, negative = inhibition"
1,CC(=O)N1C2C3N(C(C)=O)C1C1N(C(C)=O)C(C(N1C(C)=O)N3C(C)=O)N2C(C)=O,inactive: 0.647%
2,O=[N+]([O-])c1cccc2n[nH]nc12,inactive: 2.1%
3,O=[N+]([O-])c1ncn(CCn2ncnc2[N+](=O)[O-])n1,inactive: 2.34%
4,O=C(O)CNc1ccc([As](=O)(O)O)cc1,inactive: -11%
5,O=C(Nc1cc([As](=O)(O)O)ccc1O)c1ccccc1,inactive: -4.65%
6,CC(=O)NC(SC(=S)N(C)C)C(Cl)(Cl)Cl (stereo not given),inactive: -6.61%
7,O=C(OC1CN2CCC1CC2)c1cccc(Cl)c1 (stereo not given),inactive: 5.76%
8,C(Cc1nn[nH]n1)Cc1nn[nH]n1,inactive: 2.9%
9,O=P(Nc1ccccn1)(c1ccc(Br)cc1)c1ccc(Br)cc1,inactive: -3.11%
10,O=P(Nc1nc2ccccc2s1)(c1ccccc1)c1ccccc1,inactive: -3.43%
11,O=P(Nc1nccs1)(c1ccccc1)c1ccccc1,inactive: 0.756%
12,CC(C)C(=O)NC(Sc1ccccc1)C(Cl)(Cl)Cl (stereo not given),inactive: 1.71%
13,c1nnnn1CCn1cnnn1,inactive: -2.56%
14,CC(=O)Nc1ccc([As](=O)(O)O)c(O)c1,inactive: -2.27%
15,CC(=O)Nc1ccc(Oc2c([N+](=O)[O-])cc([N+](=O)[O-])cc2[N+](=O)[O-])cc1,inactive: -5.34%
16,O=P1(Nc2nc3ccc(Cl)cc3s2)COc2ccccc2O1 (stereo not given),inactive: 0.265%
17,CCOc1ccc(C2=NCC(CBr)S2)cc1 (stereo not given),inactive: 2.68%
18,CC(C)(C)C(=O)NC(Sc1ccccc1)C(Cl)(Cl)Cl (stereo not given),inactive: 3.17%
19,CCC(=O)N1C2C3N(C(=O)CC)C1C1N(C(=O)CC)C(C(N1C(=O)CC)N3C(=O)CC)N2C(=O)CC,inactive: 8.56%
20,COC(=O)c1cc2c(s1)N=C(c1ccccc1)N(C)P2(=O)N1CCOCC1 (stereo not given),inactive: 3.21%
21,CC(=O)NC(SC(=S)N(CC(C)C)CC(C)C)C(Cl)(Cl)Cl (stereo not given),inactive: 3.72%
22,O=c1c2cc([N+](=O)[O-])ccc2[nH]c2c([N+](=O)[O-])cc([N+](=O)[O-])cc12,inactive: 10.6%
23,c1ccc(-c2nn[nH]n2)c(-c2nn[nH]n2)c1,inactive: -7.71%

row,Structure (SMILES),"activity change, negative = inhibition"
1,CCOC(=O)NC(Sc1ccccc1)C(Cl)(Cl)Cl (stereo not given),inactive: -13.3%
2,O=C(NC1CCS(=O)(=O)C1)NP(=S)(Oc1ccccc1)Oc1ccccc1 (stereo not given),inactive: 0.644%
3,CCNC(=S)/N=C(\N)N[N+](=O)[O-],inactive: 0.417%
4,O=[N+]([O-])c1ccc2c(c1)nnn2O,inactive: -5.6%
5,CCOP1(=S)c2c(C)nn(CCC#N)c2N=C(c2ccccc2F)N1C (stereo not given),inactive: 0.945%
6,O=P(Nc1nccs1)(c1ccccc1)c1nc2ccccc2s1 (stereo not given),inactive: -1.6%
7,O=P(Nc1nccs1)(Oc1ccccc1)Oc1ccccc1,inactive: 8.51%
8,CS(=O)(=O)c1cc([N+](=O)[O-])c2no[n+]([O-])c2c1,inactive: -5.24% [at 15.4 µM]
9,Nc1cccc2c([As](=O)(O)O)cccc12,inactive: -13.2%
10,Cc1ccc(NCCc2c([N+](=O)[O-])cc([N+](=O)[O-])cc2[N+](=O)[O-])cc1,inactive: -1.84%
11,COc1cc(C2NCCC3(OCCO3)C2(C)C)cc(OC)c1OC (stereo not given),inactive: 0.273%
12,CCOP(=O)(Nc1cccc2ccccc12)OCC,inactive: -5.69%
13,COc1cc(C(=O)NCC2(N3CCOCC3)CCCCC2)cc(Cl)c1OC(C)C,inactive: -5.61%
14,O=[As](O)(c1cccc(O)c1)c1cccc(O)c1,inactive: -3.91% [at 15.4 µM]
15,Cc1cccc(OCC(=O)OC2CN3CCC2CC3)c1 (stereo not given),inactive: 2.74%
16,CN(C(=O)Cc1ccc(Cl)c(Cl)c1)[C@@H]1CCCC[C@H]1N1CCCC1,inactive: -13.6% [at 15.4 µM]
17,CC(C)/C=N\N=C(\N)N[N+](=O)[O-],inactive: 1.93%
18,O=P1(Nc2ccccn2)COc2ccccc2OC1,inactive: 5.97%
19,Clc1n[nH]nc1-c1nn[nH][15n]1,inactive: -4.49%
20,CC(C)(C)C(=O)NC(Sc1ncccn1)C(Cl)(Cl)Cl (stereo not given),inactive: -4.49%
21,O=P1(Nc2ncccn2)COc2ccccc2OC1,inactive: -0.319%
22,O=P1(Nc2ccc(Br)cn2)COc2ccccc2OC1,inactive: 1.93%
23,Cc1ccc(OCC(=O)OC2CN3CCC2CC3)cc1 (stereo not given),inactive: 4.31%

row,Structure (SMILES),"activity change, negative = inhibition"
1,Cc1nn(-c2ccccc2)c2c1P(=O)(N1CCOCC1)N(C)C(c1ccccc1)=N2 (stereo not given),inactive: 0.798%
2,O=C(/C=C/c1ccccc1)OC1CN2CCC1CC2 (stereo not given),inactive: 4.21%
3,CCOC(=O)Nc1cccc([As](=O)(O)O)c1,inactive: 2.28%
4,Cc1cc(SC(NC=O)C(Cl)(Cl)Cl)ncn1 (stereo not given),inactive: 5.64%
5,O=P(Nc1ccccn1)(c1cccc2ccccc12)c1cccc2ccccc12,inactive: 5.23%
6,Cc1cc(SC(NC(=O)c2ccccc2)C(Cl)(Cl)Cl)nc(C(C)C)n1 (stereo not given),inactive: -12.4%
7,CCC(C)N(CC(C)C)C(=S)SC(NC(C)=O)C(Cl)(Cl)Cl (stereo not given),inactive: -5.13%
8,COP1(=S)c2c(C)nn(CCC#N)c2N=C(c2ccc(F)cc2)N1C (stereo not given),inactive: 0.835%
9,O=C(COc1ccccc1)OC1CN2CCC1CC2 (stereo not given),inactive: 9.15%
10,COc1ccc(N/C(=N/P(=O)(N2CCOCC2)N2CCOCC2)N2CCOCC2)cc1,inactive: 1.04%
11,Cc1c2c(nc3ccccc13)SC(C(Cl)Cl)C2 (stereo not given),inactive: -12.2%
12,O=C(OC1CN2CCC1CC2)C12CC3CC(CC(C3)C1)C2 (stereo not given),inactive: -6.37% [at 15.4 µM]
13,Cc1cc(=O)[nH]c(N[N+](=O)[O-])n1,inactive: -0.112%
14,COc1ccc2nc(NP(=O)(c3ccccc3)c3ccccc3)sc2c1,inactive: 7.99%
15,ClCCSc1nnc(-c2cccnc2)o1,inactive: -7.79%
16,CCN(CC)C(=S)SC(NC=O)C(Cl)(Cl)Cl (stereo not given),inactive: 5.66%
17,CC(C)NC(=O)NP(=O)(Oc1ccccc1)Oc1ccccc1,inactive: 5.97%
18,O=[N+]([O-])c1cc([N+](=O)[O-])c(-c2ccn[nH]2)s1,inactive: -0.846%
19,C[As](=O)(O)c1cccc(C(=O)O)c1,inactive: 3.08%
20,Cc1ccc(OP(=O)(Nc2ccc([N+](=O)[O-])cn2)Oc2ccc(C)cc2)cc1,inactive: -1.91%
21,Cc1ccc2nc3c(c(C)c2c1)CC(C(Cl)Cl)S3 (stereo not given),inactive: -0.478%
